Results reported in ChEMBL document CHEMBL1134181, “Synthesis and biological evaluation of novel amides of polyunsaturated fatty acids with dopamine” (Bioorg Med Chem Lett, 2001).

By UniProt entry, the sequences of proteins in these tests, tags left out.
UniProt P20272, whole entry: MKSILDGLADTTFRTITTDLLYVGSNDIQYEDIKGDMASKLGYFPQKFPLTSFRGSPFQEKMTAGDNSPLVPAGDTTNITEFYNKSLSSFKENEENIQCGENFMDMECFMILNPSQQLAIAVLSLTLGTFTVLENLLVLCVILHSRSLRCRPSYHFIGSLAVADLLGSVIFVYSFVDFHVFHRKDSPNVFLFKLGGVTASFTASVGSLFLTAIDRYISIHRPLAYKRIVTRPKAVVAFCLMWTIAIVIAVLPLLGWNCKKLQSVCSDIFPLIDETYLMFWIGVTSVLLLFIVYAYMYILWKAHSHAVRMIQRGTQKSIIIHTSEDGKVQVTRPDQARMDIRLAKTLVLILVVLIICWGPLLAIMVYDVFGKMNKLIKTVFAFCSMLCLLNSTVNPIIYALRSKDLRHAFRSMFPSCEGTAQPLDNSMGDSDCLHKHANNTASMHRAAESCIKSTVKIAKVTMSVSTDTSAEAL

Molecular target: Cannabinoid receptor 1 (Rattus norvegicus, UniProt P20272)
Test: Concentration required to displace 0.4 nM [3H]SR-141,716A from CB1 receptor in rat brain preparations in the presence of 0.1 mM phenylmethyl sulfonyl fluoride
Type: tissue-based

## CCCCC/C=C\C/C=C\C/C=C\C/C=C\CCCC(=O)NCCO [ANANDAMIDE]
  Ki: 800 nM
